Measurements reported in ChEMBL document CHEMBL1124669, “Quaternary salts of 2-[(hydroxyimino)methyl]imidazole. 2. Preparation and in vitro and in vivo evaluation of 1-(alkoxymethyl)-2-[(hydroxyimino)methyl]-3-methylimida zolium halides for reactivation of organophosphorus-inhibited acetylcholinesterases” (1989).

Assay: Partition coefficient (logD7.6)
Conditions: octanol/water, pH 7.6

Q: With `CC(OC[n+]1ccn(C)c1/C=N/O)C(C)(C)C.[Cl-]` (configuration not stated) as the molecule, how does the logD read?
A: The logD was -0.68.

Q: Which logD does the source give for `CCCC(=O)OC[n+]1ccn(C)c1/C=N/O.[Cl-]` here?
A: The logD was -1.53.

Q: Which logD does the source give for `Cn1cc[n+](COCc2ccccc2)c1/C=N/O.[Cl-]` here?
A: Its logD is -1.3.

Q: For `Cn1cc[n+](COCCCc2ccccc2)c1/C=N/O.[Cl-]`, which logD is on record?
A: Its logD is -0.45.

Q: For `CCC(C)C(C)OC[n+]1ccn(C)c1/C=N/O.[Cl-]` (configuration not stated), which logD is on record?
A: Its logD is -0.76.

Q: With `Cn1cc[n+](COC2CCCCCC2)c1/C=N/O.[Cl-]` as the molecule, how does the logD read?
A: The logD was -0.56.

Q: Which logD does the source give for `Cn1cc[n+](COC[n+]2ccn(C)c2/C=N/O)c1/C=N/O` here?
A: Its logD is < -3.

Q: With `CC(C)OC[n+]1ccn(C)c1/C=N/O.[Cl-]` as the molecule, how does the logD read?
A: Its logD is -2.17.

Q: With `CCCCCCCCOC[n+]1ccn(C)c1/C=N/O.[Cl-]` as the molecule, how does the logD read?
A: Its logD is 0.88.

Q: With `Cn1cc[n+](COC2CCCCCCCCCCC2)c1/C=N/O.[Cl-]` as the molecule, how does the logD read?
A: Its logD is 1.48.

Q: For `Cn1cc[n+](COC2CCC2)c1/C=N/O.[Cl-]`, which logD is on record?
A: Its logD is -2.1.

Q: For `Cn1cc[n+](COC2CCCCC2)c1/C=N/O.[Cl-]`, which logD is on record?
A: The logD was -1.2.

Q: With `Cn1cc[n+](COC(C)(C)C(C)(C)C)c1/C=N/O.[Cl-]` as the molecule, how does the logD read?
A: The logD was -0.25.

Q: With `CCOC[n+]1ccn(C)c1/C=N/O.[Cl-]` as the molecule, how does the logD read?
A: The logD was -2.7.

Q: With `CC(CC(C)(C)C)OC[n+]1ccn(C)c1/C=N/O.[Cl-]` (configuration not stated) as the molecule, how does the logD read?
A: Its logD is -0.28.

Q: Which logD does the source give for `Cn1cc[n+](COC(=O)C(C)(C)C)c1/C=N/O.[Cl-]` here?
A: The logD was -1.36.

Q: Which logD does the source give for `Cn1cc[n+](CCCC[n+]2ccn(C)c2/C=N/O)c1/C=N/O` here?
A: Its logD is < -3.

Q: With `Cn1cc[n+](COCc2cccc3ccccc23)c1/C=N/O.[Cl-]` as the molecule, how does the logD read?
A: The logD was -0.36.

Q: For `Cn1cc[n+](COCC2CCCc3ccccc32)c1/C=N/O.[Cl-]` (configuration not stated), which logD is on record?
A: The logD was 0.07.

Q: With `CCCC(OC[n+]1ccn(C)c1/C=N/O)C1CCCC1.[Cl-]` (configuration not stated) as the molecule, how does the logD read?
A: The logD was 0.22.

Q: Which logD does the source give for `CCCC(CC)OC[n+]1ccn(C)c1/C=N/O.[Cl-]` (configuration not stated) here?
A: Its logD is -0.86.

Q: With `Cn1cc[n+](COC(=O)c2ccc3ccccc3c2)c1/C=N/O.[Cl-]` as the molecule, how does the logD read?
A: The logD was 0.52.

Q: For `Cc1n(C)cc[n+]1COC(C)C(C)(C)C.[Cl-]` (configuration not stated), which logD is on record?
A: The logD was -1.71.

Q: Which logD does the source give for `CCC(C)C(=O)OC[n+]1ccn(C)c1/C=N/O.[Cl-]` (configuration not stated) here?
A: The logD was -1.21.

Q: Which logD does the source give for `Cn1cc[n+](COCC2CCCCC2)c1/C=N/O.[Cl-]` here?
A: Its logD is -0.12.

Q: Which logD does the source give for `CCCCCCOC[n+]1ccn(C)c1/C=N/O.[Cl-]` here?
A: The logD was -0.11.

Q: With `CCC(OC[n+]1ccn(C)c1/C=N/O)C(C)(C)C.[Cl-]` (configuration not stated) as the molecule, how does the logD read?
A: Its logD is -0.36.

Q: For `CC(OC[n+]1ccn(C)c1/C=N/O)C1CCCCC1.[Cl-]` (configuration not stated), which logD is on record?
A: The logD was 0.22.

Q: With `Cn1cc[n+](COC[n+]2ccccc2/C=N/O)c1/C=N/O.[Cl-].[Cl-]` as the molecule, how does the logD read?
A: The logD was < -3.

Q: For `Cn1cc[n+](COC2CCCC2)c1/C=N/O.[Cl-]`, which logD is on record?
A: Its logD is -1.46.

Q: For `Cn1cc[n+](CCC[n+]2ccn(C)c2/C=N/O)c1/C=N/O`, which logD is on record?
A: The logD was < -3.

Q: For `Cn1c(/C=N/O)[n+](C)c2ccccc21.[Cl-]`, which logD is on record?
A: Its logD is -1.13.

Q: Which logD does the source give for `Cn1cc[n+](COCC(C)(C)C)c1/C=N/O.[Cl-]` here?
A: Its logD is -0.91.

Q: For `O/N=C\c1cccc[n+]1COCCOC[n+]1ccccc1/C=N/O.[Cl-].[Cl-]`, which logD is on record?
A: Its logD is < -3.

Q: Which logD does the source give for `COC[n+]1ccn(C)c1/C=N/O.[Cl-]` here?
A: Its logD is -3.

Q: For `CCCC(C)OC[n+]1ccn(C)c1/C=N/O.[Cl-]` (configuration not stated), which logD is on record?
A: Its logD is -1.12.

Assay: Octanol buffer partition coefficient for 0.1M, at pH 7.6 in phosphate buffer
Conditions: octanol/water

Q: With `CC(C)CCOC[n+]1ccn(C)c1/C=N/O.[Cl-]` as the molecule, how does the logD read?
A: Its logD is -1.08.
